Holding throughout (format): biochemical
One experiment concerns the target SRC (Homo sapiens, UniProt P12931). In words: Inhibition of a panel of kinases, in vitro HotSpot kinase assay: SRC. Particulars: read-out: IC50 SRC; D-compounds panel data; 1 μM ATP. On the procedure:
(§1) The degree of inhibition of a panel of kinases is determined using the in vitro HotSpot kinase assay (purified enzymes, ^33P-ATP, an appropriate substrate and 1 μM ATP).

Amino acid sequences for entries named in this document (tags omitted). Residues count along the entry.
UniProt P12931, whole entry: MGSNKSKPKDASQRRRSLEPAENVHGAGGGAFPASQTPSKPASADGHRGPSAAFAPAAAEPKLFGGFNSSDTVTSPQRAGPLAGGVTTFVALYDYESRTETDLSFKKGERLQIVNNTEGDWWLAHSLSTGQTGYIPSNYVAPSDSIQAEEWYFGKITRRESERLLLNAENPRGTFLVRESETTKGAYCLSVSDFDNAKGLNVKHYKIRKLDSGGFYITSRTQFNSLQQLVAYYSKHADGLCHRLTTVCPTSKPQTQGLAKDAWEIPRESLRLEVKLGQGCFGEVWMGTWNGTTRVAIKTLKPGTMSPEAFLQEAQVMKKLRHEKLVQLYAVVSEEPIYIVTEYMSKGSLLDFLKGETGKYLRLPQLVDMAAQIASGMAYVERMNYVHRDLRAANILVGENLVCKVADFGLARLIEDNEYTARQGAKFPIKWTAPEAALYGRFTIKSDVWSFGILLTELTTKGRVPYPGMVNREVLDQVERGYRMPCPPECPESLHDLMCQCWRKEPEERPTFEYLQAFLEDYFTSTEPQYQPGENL
UniProt Q08881, whole entry: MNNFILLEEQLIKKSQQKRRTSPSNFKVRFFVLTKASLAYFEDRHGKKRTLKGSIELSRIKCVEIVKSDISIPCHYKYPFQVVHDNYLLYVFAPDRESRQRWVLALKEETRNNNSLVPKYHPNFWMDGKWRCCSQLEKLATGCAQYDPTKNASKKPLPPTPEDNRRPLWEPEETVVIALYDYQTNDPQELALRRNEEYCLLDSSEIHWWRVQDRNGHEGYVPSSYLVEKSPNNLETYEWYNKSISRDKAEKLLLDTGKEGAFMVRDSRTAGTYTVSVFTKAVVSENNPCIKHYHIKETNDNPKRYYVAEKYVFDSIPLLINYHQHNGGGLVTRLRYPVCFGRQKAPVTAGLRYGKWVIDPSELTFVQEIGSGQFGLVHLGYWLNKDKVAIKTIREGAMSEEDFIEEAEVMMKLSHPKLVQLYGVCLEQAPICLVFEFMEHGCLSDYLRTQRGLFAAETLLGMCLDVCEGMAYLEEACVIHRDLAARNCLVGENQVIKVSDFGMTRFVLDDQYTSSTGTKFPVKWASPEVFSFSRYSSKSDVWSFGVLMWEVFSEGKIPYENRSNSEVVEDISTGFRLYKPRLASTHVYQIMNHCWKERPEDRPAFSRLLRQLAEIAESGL
UniProt P52333, whole entry: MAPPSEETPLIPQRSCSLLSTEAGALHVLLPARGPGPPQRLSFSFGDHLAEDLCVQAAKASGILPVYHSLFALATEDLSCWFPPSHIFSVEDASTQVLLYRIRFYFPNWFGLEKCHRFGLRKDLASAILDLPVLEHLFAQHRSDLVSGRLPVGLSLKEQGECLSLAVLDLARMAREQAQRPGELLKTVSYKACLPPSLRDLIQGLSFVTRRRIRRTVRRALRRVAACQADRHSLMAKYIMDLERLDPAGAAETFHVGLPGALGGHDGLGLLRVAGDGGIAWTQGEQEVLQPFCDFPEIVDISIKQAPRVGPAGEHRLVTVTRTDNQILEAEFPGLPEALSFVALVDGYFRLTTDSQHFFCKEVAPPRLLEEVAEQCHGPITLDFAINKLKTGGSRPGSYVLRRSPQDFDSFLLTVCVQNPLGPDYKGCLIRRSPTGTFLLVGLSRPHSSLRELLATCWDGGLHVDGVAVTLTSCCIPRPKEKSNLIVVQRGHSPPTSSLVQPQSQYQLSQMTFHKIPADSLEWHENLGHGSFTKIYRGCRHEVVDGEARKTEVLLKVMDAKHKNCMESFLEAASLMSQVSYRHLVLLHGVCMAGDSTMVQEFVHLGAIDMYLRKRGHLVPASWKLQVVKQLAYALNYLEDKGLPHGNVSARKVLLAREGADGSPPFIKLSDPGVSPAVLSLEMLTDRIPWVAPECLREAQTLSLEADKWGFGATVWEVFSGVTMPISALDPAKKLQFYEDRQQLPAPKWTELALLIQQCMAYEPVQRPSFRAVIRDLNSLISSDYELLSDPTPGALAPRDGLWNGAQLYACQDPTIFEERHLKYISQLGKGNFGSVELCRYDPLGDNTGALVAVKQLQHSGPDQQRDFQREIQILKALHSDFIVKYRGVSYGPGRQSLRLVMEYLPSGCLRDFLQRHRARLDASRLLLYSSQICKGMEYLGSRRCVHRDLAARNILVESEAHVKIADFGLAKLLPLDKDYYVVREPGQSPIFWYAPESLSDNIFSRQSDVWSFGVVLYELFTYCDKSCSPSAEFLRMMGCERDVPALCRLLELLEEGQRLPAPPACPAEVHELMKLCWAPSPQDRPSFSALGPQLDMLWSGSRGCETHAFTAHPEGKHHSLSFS
UniProt P00533, 25-1210 limits assumed: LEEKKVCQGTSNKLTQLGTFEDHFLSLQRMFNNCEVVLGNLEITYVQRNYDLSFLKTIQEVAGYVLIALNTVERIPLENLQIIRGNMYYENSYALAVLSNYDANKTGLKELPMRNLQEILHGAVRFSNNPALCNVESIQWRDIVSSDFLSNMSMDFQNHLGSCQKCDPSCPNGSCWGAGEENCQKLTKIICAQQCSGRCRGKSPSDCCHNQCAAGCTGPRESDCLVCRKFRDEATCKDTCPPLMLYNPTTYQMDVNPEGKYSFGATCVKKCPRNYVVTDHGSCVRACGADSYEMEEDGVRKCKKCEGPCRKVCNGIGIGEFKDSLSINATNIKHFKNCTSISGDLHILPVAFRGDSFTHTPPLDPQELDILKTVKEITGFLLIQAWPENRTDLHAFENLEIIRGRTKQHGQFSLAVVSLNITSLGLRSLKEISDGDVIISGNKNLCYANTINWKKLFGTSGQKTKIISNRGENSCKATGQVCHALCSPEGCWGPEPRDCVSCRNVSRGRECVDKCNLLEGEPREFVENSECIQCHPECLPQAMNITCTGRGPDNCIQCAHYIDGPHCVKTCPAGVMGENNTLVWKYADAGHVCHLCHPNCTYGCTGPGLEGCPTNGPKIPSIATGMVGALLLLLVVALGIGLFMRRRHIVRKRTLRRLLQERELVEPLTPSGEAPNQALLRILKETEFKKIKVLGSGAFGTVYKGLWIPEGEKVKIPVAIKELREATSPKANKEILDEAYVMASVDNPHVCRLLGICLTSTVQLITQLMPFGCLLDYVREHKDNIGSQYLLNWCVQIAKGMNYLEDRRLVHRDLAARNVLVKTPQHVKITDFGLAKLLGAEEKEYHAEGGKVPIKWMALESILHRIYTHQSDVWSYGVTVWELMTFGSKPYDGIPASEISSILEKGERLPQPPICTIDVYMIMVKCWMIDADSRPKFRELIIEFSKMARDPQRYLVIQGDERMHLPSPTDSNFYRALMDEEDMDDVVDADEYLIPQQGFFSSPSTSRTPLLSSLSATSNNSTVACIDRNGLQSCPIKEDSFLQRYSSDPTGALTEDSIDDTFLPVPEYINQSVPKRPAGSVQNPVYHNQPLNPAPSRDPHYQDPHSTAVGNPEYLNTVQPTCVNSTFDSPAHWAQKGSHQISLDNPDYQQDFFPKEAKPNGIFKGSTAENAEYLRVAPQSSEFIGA
UniProt P06239, whole entry: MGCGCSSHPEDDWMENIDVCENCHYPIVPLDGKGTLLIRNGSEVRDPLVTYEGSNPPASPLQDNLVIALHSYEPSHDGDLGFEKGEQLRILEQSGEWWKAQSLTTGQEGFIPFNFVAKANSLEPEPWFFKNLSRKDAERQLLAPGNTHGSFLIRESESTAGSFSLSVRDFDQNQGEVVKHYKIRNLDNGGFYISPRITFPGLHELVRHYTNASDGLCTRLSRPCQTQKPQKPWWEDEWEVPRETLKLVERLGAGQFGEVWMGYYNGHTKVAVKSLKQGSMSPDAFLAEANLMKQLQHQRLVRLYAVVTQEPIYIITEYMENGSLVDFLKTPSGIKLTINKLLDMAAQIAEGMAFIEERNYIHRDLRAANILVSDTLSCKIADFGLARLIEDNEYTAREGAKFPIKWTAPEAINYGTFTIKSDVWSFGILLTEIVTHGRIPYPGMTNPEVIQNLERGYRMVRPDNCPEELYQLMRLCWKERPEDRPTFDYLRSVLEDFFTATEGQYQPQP
UniProt P42680, whole entry: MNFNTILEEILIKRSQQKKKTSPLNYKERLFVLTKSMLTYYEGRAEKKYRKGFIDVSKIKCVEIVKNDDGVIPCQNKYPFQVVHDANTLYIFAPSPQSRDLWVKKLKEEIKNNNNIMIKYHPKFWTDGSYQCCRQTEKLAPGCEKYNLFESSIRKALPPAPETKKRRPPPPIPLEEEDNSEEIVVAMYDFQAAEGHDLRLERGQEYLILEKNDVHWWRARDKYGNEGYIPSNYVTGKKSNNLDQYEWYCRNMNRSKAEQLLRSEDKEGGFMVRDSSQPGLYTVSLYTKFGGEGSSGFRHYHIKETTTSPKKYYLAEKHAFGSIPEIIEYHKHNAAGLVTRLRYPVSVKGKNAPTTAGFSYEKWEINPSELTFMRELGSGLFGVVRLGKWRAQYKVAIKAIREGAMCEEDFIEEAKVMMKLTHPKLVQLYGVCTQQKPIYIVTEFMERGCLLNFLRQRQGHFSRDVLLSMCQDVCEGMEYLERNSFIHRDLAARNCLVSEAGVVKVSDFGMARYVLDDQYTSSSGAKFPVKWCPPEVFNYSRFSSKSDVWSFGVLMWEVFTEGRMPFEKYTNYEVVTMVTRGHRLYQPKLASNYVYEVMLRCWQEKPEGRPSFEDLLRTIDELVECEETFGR
UniProt Q06187, whole entry: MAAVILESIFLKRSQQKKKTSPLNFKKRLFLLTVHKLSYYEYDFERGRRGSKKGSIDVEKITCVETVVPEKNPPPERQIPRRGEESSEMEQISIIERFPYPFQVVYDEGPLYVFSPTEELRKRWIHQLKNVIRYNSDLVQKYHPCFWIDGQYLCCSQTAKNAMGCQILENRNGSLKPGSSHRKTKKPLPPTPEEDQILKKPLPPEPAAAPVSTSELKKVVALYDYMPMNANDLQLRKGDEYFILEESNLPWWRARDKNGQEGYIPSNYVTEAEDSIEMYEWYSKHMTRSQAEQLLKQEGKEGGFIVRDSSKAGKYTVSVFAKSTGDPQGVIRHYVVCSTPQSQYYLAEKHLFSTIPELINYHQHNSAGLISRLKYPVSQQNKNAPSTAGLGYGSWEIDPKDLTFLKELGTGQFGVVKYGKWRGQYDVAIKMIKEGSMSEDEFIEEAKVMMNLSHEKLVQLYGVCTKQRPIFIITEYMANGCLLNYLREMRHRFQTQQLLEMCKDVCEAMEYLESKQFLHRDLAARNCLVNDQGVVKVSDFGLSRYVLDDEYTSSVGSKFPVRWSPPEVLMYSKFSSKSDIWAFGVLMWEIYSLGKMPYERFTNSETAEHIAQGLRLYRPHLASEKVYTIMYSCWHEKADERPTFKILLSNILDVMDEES

A further experiment addresses ITK (Homo sapiens, UniProt Q08881). Description: Inhibition of a panel of kinases, in vitro HotSpot kinase assay: ITK. Conditions: read-out: IC50 ITK; D-compounds panel data; 1 μM ATP. On the procedure:
as §1

A further experiment concerns the target JAK3 (Homo sapiens, UniProt P52333). In words: Inhibition of a panel of kinases, in vitro HotSpot kinase assay: JAK3. Particulars: read-out: IC50 JAK3; D-compounds panel data; 1 μM ATP.
The target in the next experiment is EGFR (Homo sapiens, UniProt P00533). Description: Inhibition of a panel of kinases, in vitro HotSpot kinase assay: EGFR. Particulars: read-out: IC50 EGFR; D-compounds panel data; 1 μM ATP. On the procedure: as §1
A further experiment concerns the target LCK (Homo sapiens, UniProt P06239). Description: Inhibition of a panel of kinases, in vitro HotSpot kinase assay: LCK. Conditions: read-out: IC50 LCK; D-compounds panel data; 1 μM ATP.
The next experiment has as its target TEC (Homo sapiens, UniProt P42680). In words: Inhibition of a panel of kinases, in vitro HotSpot kinase assay: TEC. Conditions: read-out: IC50 TEC; D-compounds panel data; 1 μM ATP. On the procedure:
as §1

The target in a further experiment is BTK-WT (Homo sapiens, UniProt Q06187). Description: Btk in vitro inhibitory activity (one of Method A TR-FRET, Method B electrophoretic mobility shift, Method C radiometric filter binding). Particulars: read-out: IC50 BTK-WT; D-compounds panel data. In general terms: A gel shift assay detects complexes by their altered migration in electrophoresis.

The values below come from US20210070748A1, “INHIBITORS OF BRUTONS TYROSINE KINASE” (Pharmacyclics LLC, priority 2015, published 2021).

A value given as a limit tells only on which side of the number the result lay.

Take `Cn1cc(Nc2nc(N3C[C@H](CO)C[C@@H](NC(=O)c4ccc(C5CC5)cc4)C3)cnc2C(N)=O)cn1` (relative stereo): the IC50 (usually the concentration that gives 50% inhibition) at SRC was greater than 10000 nM; at ITK, greater than 10000 nM; on JAK3 it was greater than 10000 nM; on EGFR it was greater than 10000 nM; at LCK, greater than 10000 nM; on TEC it was 100 to 1000 nM. Moreover, the IC50 at BTK-WT lay within 10 to 100 nM.

For `C[C@@H]1[C@H](NC(=O)c2ccc(C3CC3)cc2F)CCCN1c1cnc(C(N)=O)c(Nc2ccc(C(=O)N3CCN(C)CC3)cc2)n1` [Example A-122, 5-[(2R,3R)-3-(4-cyclopropyl-2-fluorobenzamido)-2-methylpiperidin-1-yl]-3-{[4-(4-methylpiperazine-1-carbonyl)phenyl]amino}pyr-azine-2-carboxamide], the concentration for half-maximal inhibition (IC50) at SRC fell in the range of 100 to 1000 nM; at ITK, 100 to 1000 nM; on JAK3, 100 to 1000 nM; at EGFR it was 100 to 1000 nM; at LCK it was 100 to 1000 nM; on TEC, 10 to 100 nM. Besides, the IC50 at BTK-WT is less than 10 nM.
